Measurements: ChEMBL document CHEMBL1129802, “Novel phenyl nitrogen mustard and half-mustard derivatives of amidino-modified distamycin” (1997)

Test system: Mus musculus
Assay: Optimal dose in mice (sub LD10 mg/kg).

| SMILES | OD [mg/kg] |
| --- | --- |
| CCN(CCCl)c1ccc(C(=O)Nc2cc(C(=O)Nc3cc(C(=O)Nc4cc(C(=O)NCCN=C(N)N)n(C)c4)n(C)c3)n(C)c2)cc1.Cl | 6.25 |
| Cn1cc(NC(=O)c2cc(NC(=O)c3cc(NC(=O)c4ccc(N(CCCl)CCCl)cc4)cn3C)cn2C)cc1C(=O)NCCC(=N)NN | 12.5 |
| Cn1cc(NC(=O)c2cc(NC(=O)c3cc(NC(=O)c4ccc(N(CCCl)CCCl)cc4)cn3C)cn2C)cc1C(=O)NCCC(=O)O | 50 |
| CCN(CCCl)c1ccc(C(=O)Nc2cc(C(=O)Nc3cc(C(=O)Nc4cc(C(=O)NCCC(=N)NC)n(C)c4)n(C)c3)n(C)c2)cc1.Cl | 3.13 |
| CN(C)CCCNC(=O)c1cc(NC(=O)c2cc(NC(=O)c3cc(NC(=O)c4ccc(N(CCCl)CCCl)cc4)cn3C)cn2C)cn1C.Cl | 25 |
| Cn1cc(NC(=O)c2cc(NC(=O)c3cc(NC(=O)c4ccc(N(CCCl)CCCl)cc4)cn3C)cn2C)cc1C(=O)NCCC(=N)NC#N | 6.25 |
| Cl.Cn1cc(NC(=O)c2cc(NC(=O)c3cc(NC(=O)c4ccc(N(CCCl)CCCl)cc4)cn3C)cn2C)cc1C(=O)NCCN=C(N)N | 12.5 |
| CCN(CCCl)c1ccc(C(=O)Nc2cc(C(=O)Nc3cc(C(=O)Nc4cc(C(=O)NCCC(=N)NC#N)n(C)c4)n(C)c3)n(C)c2)cc1 | 6.25 |
| CNC(=N)CCNC(=O)c1cc(NC(=O)c2cc(NC(=O)c3cc(NC(=O)/C=C/c4ccc(N(CCCl)CCCl)cc4)cn3C)cn2C)cn1C.Cl | 3.13 |
| Cl.Cn1cc(NC(=O)c2cc(NC(=O)c3cc(NC(=O)/C=C/c4ccc(N(CCCl)CCCl)cc4)cn3C)cn2C)cc1C(=O)NCCC(=N)N | 6.25 |
| C/N=C(/CCNC(=O)c1cc(NC(=O)c2cc(NC(=O)c3cc(NC(=O)c4ccc(N(CCCl)CCCl)cc4)cn3C)cn2C)cn1C)NC.Cl | 3.13 |
| CNC(=N)CCNC(=O)c1cc(NC(=O)c2cc(NC(=O)c3cc(NC(=O)c4ccc(N(CCCl)CCCl)cc4)cn3C)cn2C)cn1C.Cl | 3.13 |
| Cn1cc(NC(=O)c2cc(NC(=O)c3cc(NC(=O)/C=C/c4ccc(N(CCCl)CCCl)cc4)cn3C)cn2C)cc1C(=O)NCCC(=N)NO | 6.25 |
| Cl.Cn1cc(NC(=O)c2cc(NC(=O)c3cc(NC(=O)/C=C/c4ccc(N(CCCl)CCCl)cc4)cn3C)cn2C)cc1C(=O)NCCN=C(N)N | 3.13 |
| Cn1cc(NC(=O)c2cc(NC(=O)c3cc(NC(=O)/C=C/c4ccc(N(CCCl)CCCl)cc4)cn3C)cn2C)cc1C(=O)NCCC(=N)NC#N | 12.5 |
| CCN(CCCl)c1ccc(C(=O)Nc2cc(C(=O)Nc3cc(C(=O)Nc4cc(C(=O)NCCC(=N)N)n(C)c4)n(C)c3)n(C)c2)cc1.Cl | 3.13 |
| Cn1cc(NC(=O)c2cc(NC(=O)c3cc(NC(=O)c4ccc(N(CCCl)CCCl)cc4)cn3C)cn2C)cc1C(=O)NCCC(=N)NO | 12.5 |
| Cl.Cn1cc(NC(=O)c2cc(NC(=O)c3cc(NC(=O)c4ccc(N(CCCl)CCCl)cc4)cn3C)cn2C)cc1C(=O)NCCCc1ncc[nH]1 | 6.25 |
| Cn1cc(NC(=O)c2cc(NC(=O)c3cc(NC(=O)c4ccc(N(CCCl)CCCl)cc4)cn3C)cn2C)cc1C(=O)NCCC#N | 25 |
| C/N=C(/CCNC(=O)c1cc(NC(=O)c2cc(NC(=O)c3cc(NC(=O)/C=C/c4ccc(N(CCCl)CCCl)cc4)cn3C)cn2C)cn1C)NC.Cl | 1.56 |
